Test results published in PubChem BioAssay (Tox21).
The entries are a selection whose mix differs from that of the whole data set. Results filed as inconclusive are left out. Activity calls are given as the source filed them. Calls come from the whole dose curve; as a rule, active = well fitted activation curve with a large enough effect in the signal ratio in the repeat runs (not every such curve was filed as active); inconclusive = weak or mixed curves, or effect the other way; inactive = no such curve, though single readings can be large or run the other way; the % refers to the signal ratio.

Test: qHTS assay for small molecule agonists of the antioxidant response element (ARE) signaling pathway (AID 743202)
Conditions: HepG2 ARE-bla reporter, beta-lactamase FRET, 16 h; series mostly up to 73.3 µM; activation: at the top concentration
Source text: U.S. Tox21 Program National Center for Advancing Translational Sciences [NCATS] NIH Chemical Genomics Center [NCGC] U.S. Environmental Protection Agency [EPA] National Institutes of Environmental Health Sciences [NIEHS] National Toxicology Program [NTP] U.S. Food and Drug Administration [FDA] Tox21 Assay Overview: Oxidative stress has been implicated in the pathogenesis of a variety of diseases ranging from cancer to neurodegeneration. The antioxidant response element (ARE) signaling pathway plays an important role in the amelioration of oxidative stress. The CellSensor ARE-bla HepG2 cell line (Invitrogen) can be used for analyzing the Nrf2/antioxidant response signaling pathway. Nrf2 (NF-E2-related factor 2) and Nrf1 are transcription factors that bind to AREs and activate these genes. The CellSensor ARE-bla Hep G2 cell line contains a beta-lactamase reporter gene under control of the Antioxidant Response Element (ARE) stably integrated into HepG2 cells. The activation of the report gene under culture conditions can be detected by fluorescence intensity. This cell line has been used to screen the Tox21 10K compound library to identify agonists that induce oxidative stress.
Tox21 Assay Protocol Summary: The ARE-bla cells were dispensed at 2,000 cells/5 ul/well in 1536-well black wall/clear bottom plates using a Multidrop dispenser. After the assay plates were incubated at a 37 C/5% CO2 incubator for 5 hours, 23 nL of compounds dissolved in DMSO, positive controls or DMSO only was transferred to the assay plate by a pin tool. The plates were incubated at 37 C for 16 hours. After 1 uL of LiveBLAzer B/G FRET substrate was added using a Flying Reagent Dispenser, the plates were incubated at room temperature for 2 hours, and fluorescence intensity was measured by an Envision plate reader.
% is set by controls: 0 for no effect and ±100 for the full control effect; potency is the fitted concentration of half-maximal effect.

SMILES	activation	Potency
CC(C)N(CCO)C(C)C	inactive: -8.24%	
CCOP(=O)(CC)OCC	inactive: -3.5%	
Cc1ccc([N+](=O)[O-])cc1[N+](=O)[O-]	inactive: 7.23%	
O=[N+]([O-])OCC(CO[N+](=O)[O-])(CO[N+](=O)[O-])CO[N+](=O)[O-]	inactive: -4.87%	
O=[N+]([O-])c1cccc([N+](=O)[O-])c1		active: 31.9 µM
OCCSCCO		inactive
N=C(N)N[N+](=O)[O-]	inactive: -5.29% [at 94.8 µM]	
COP(C)(=O)OC		inactive
CP(=O)(O)OCCC[Si](O)(O)O	inactive: -11%	
CCN(CC)CCCl		active: 24.7 µM
[NH4+].[O-][Cl+3]([O-])([O-])[O-]	inactive: -5.17% [at 94.8 µM]	
C/C1=C2N=C(/C=C3N=C(/C(C)=C4\[N-][C@@](C)([C@@H]5N=C1[C@](C)(CCC(=O)NC[C@@H](C)OP(=O)([O-])O[C@H]1[C@@H](O)[C@@H](n6cnc7cc(C)c(C)cc76)O[C@@H]1CO)[C@H]5CC(N)=O)[C@@](C)(CC(N)=O)[C@@H]4CCC(N)=O)[C@@](C)(CC(N)=O)[C@@H]\3CCC(N)=O)C(C)(C)[C@@H]/2CCC(N)=O.[C-]#N.[Co+3]	inactive: 1.1%	
COc1ccc([N+](=O)[O-])cc1[N+](=O)[O-]	inactive: -4.39%	
Cc1c([N+](=O)[O-])cccc1[N+](=O)[O-]		inactive
CC(C)OP(C)(=O)OC(C)C		inactive
O=[N+]([O-])[O-].[NH4+]		inactive
